Assay results taken from PMC4191403.

Sequences of proteins named here, by UniProt entry; tags and fusion partners are left off.
UniProt P38398, whole entry: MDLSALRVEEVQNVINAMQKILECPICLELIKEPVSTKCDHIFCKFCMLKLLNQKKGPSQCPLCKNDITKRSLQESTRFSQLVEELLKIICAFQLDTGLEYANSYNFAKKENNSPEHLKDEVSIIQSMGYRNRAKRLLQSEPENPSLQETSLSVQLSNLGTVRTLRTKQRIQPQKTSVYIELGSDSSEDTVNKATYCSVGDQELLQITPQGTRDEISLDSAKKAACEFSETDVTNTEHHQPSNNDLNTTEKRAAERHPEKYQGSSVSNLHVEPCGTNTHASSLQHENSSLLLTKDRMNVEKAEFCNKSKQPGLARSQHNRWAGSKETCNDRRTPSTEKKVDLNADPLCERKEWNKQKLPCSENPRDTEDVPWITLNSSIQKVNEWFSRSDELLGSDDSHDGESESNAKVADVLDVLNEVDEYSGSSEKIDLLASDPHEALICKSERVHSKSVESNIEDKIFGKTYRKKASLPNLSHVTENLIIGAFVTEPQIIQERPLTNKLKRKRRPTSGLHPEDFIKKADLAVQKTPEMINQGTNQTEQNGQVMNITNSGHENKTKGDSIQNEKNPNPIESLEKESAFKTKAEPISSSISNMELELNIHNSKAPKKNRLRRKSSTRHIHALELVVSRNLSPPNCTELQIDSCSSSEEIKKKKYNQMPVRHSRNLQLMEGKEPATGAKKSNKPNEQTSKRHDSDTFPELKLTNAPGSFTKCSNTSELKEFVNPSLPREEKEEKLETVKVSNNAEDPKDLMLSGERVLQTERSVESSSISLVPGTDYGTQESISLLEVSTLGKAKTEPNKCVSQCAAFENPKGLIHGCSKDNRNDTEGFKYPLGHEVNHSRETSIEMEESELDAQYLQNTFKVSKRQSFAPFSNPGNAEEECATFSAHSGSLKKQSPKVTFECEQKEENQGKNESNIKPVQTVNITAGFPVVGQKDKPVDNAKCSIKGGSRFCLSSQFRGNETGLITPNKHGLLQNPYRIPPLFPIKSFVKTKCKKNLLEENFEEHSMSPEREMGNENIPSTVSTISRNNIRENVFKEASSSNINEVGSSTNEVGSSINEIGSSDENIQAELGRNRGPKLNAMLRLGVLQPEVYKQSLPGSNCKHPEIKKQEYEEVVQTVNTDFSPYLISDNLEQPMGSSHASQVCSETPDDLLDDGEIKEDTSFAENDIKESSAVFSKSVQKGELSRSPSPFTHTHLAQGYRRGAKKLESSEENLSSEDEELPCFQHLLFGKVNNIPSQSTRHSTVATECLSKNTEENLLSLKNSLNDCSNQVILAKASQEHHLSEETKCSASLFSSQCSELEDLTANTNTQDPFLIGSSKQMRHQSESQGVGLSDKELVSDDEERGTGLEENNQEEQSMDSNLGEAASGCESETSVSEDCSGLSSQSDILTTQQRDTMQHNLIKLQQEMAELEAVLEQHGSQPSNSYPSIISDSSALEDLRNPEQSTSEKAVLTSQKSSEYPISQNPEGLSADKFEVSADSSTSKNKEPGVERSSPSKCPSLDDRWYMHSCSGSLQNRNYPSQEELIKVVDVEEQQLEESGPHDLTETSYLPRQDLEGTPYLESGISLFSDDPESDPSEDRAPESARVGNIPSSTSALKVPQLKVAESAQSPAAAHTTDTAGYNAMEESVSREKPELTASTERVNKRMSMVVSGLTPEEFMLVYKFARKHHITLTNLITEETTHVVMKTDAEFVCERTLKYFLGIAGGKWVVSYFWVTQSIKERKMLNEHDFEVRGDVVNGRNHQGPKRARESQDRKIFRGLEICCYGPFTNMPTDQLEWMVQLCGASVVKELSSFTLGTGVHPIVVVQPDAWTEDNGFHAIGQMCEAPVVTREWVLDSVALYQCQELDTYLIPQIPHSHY

Target: BRCA1 (Breast Cancer 1, early onset), endogenous in HeLa cells (human (endogenous in HeLa)) (UniProt P38398)
Experiment: co-IP; endogenous proteins from HeLa lysate (50 mM Tris pH 7.5, 250 mM NaCl, 1 mM EDTA, 0.1% NP-40), antibody on protein G agarose, 4°C overnight; reciprocal IPs; cells mock or 10 Gy irradiated, with or without 100 μg/ml ethidium, asynchronous or synchronised in S or non-S phase

decrease of the association in non-S phase compared to S phase: 82%
Substance: DNA-dependent protein kinase catalytic subunit (DNA-PKcs), endogenous in HeLa cells (a stretch of the chain, letters omitted) (natural protein)
